The values below are quoted from earlier work in US20170022147A1, “FUMARATE COMPOUNDS, PHARMACEUTICAL COMPOSITIONS THEREOF, AND METHODS OF USE” (priority 2015, published 2017).

For this data set the following is noted: ALS patients.

As to `Nc1nc2ccc(OC(F)(F)F)cc2s1` [riluzole], the extension of survival result is “about three”.
